{
  "source": "ChEMBL document CHEMBL1148829",
  "about": "“Cinnamoyl derivatives of 7alpha-aminomethyl-6,14-endo-ethanotetrahydrothebaine and 7alpha-aminomethyl-6,14-endo-ethanotetrahydrooripavine and related opioid ligands” (2007)",
  "key": {"[1]": {"species_on_record": "Mus musculus", "assay": "Antinociceptive activity in mouse by hot plate assay"}, "[2]": {"species_on_record": "Mus musculus", "assay": "Antinociceptive activity in mouse by phenylquinone writhing assay"}, "[3]": {"species_on_record": "Mus musculus", "assay": "Antinociceptive activity in mouse by tail flick assay"}},
  "data": [
    {"smiles": "CO[C@@]12CC[C@@]3(C[C@@H]1[C@](C)(O)C(C)(C)C)[C@H]1Cc4ccc(O)c5c4[C@@]3(CCN1CC1CC1)[C@H]2O5", "values": [
      {"measurement": "ED50", "setting": "[1]", "result": 0.035, "unit": "mg/kg"},
      {"measurement": "ED50", "setting": "[2]", "result": 0.016, "unit": "mg/kg"},
      {"measurement": "ED50", "setting": "[3]", "result": 0.4, "unit": "mg/kg"}
    ]}
  ]
}
